Our source for the apparent Kd with near saturating (20 uM) SpPRF values is paper PMC4293355.

The target in the test is TMR-SpWsp1(VCA) (fission yeast) (UniProt O36027). The experiment in a line: fluorescence polarisation. (In general: Fluorescence polarisation rises when a labelled molecule tumbles more slowly, as on binding a larger partner.)

In the case of “G-actin (from UniProt P68135 1-377) (natural protein)”, the apparent Kd with near saturating (20 uM) SpPRF was 105 nM.
